# Sampled rows, rich in hits. Any-hit rate of the full collection: about 16%.
# TDP1 inh: blocks human tyrosyl-DNA phosphodiesterase 1. Q9NUW8. recombinant TDP1, AlphaScreen DNA substrate cleavage. Potency, µM (series often up to 130 µM), inactives show at the top dose activity change, negative = inhibition, hits mostly inhibitors. actives 0.28% (n = 350,000); further: potency means the concentration at half of the fitted maximal effect; on the % scale 0 is the no-effect control and ±100 the full control effect; nearly all actives have a fitted effect of over 40% in size
#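 Recombinant human Tdp1 (E. coli-expressed, 1 nM final) preincubated with compounds 15 min at room temperature, then 5'-biotin/3'-phosphotyrosine-FITC DNA substrate (15 nM final) added for 5 min. AlphaScreen beads (10 ug/ml final) added 10 min; cleavage lowers signal.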
# DT40 TDP1 no CPT: qHTS for Inhibitors of human tyrosyl-DNA phosphodiesterase 1 (TDP1): qHTS in cells in absence of CPT. actives 15% (n = 420,000). Potency, µM (doses to about 46.2 µM), without a hit: at the top dose activity change, negative = growth inhibition, hits mostly inhibitors. DT40 Tdp1-/- hTDP1 cells, no CPT, ATP luminescence, 48 h; further: potency means the concentration at half of the fitted maximal effect; on the % scale 0 is the no-effect control and ±100 the full control effect; nearly all actives have a fitted effect of over 55% in size
#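 Camptothecin absent (DMSO only). Human TDP1-complemented DT40 knockout cells, 400 cells/well, 37 °C for minimum 48 hr; ATP measured via CellTiter-Glo, 30 min dark incubation, luminescence.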
# miR-21 reporter: raises the signal of a miR-21 reporter; AID 2288; 340,000 tested, under 10 active; Potency, µM (doses to about 38.3 µM), inactives show at the top dose reporter change, positive = more light; HeLa miR-21 FLuc reporter, luciferase, 48 h; active = well fitted rising curve with a large enough effect; inconclusive = small, poorly fitted or top-dose-only effect; inactive = no such curve, though single readings can be large or run the other way;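 note: % of control where 0% means no effect; miR-21 action dims this reporter so a rising signal means less miR-21 action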
#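 HeLa cells stably expressing CMV-driven firefly luciferase with a downstream miR-21 binding sequence, endogenously expressing miR-21, were treated with titrations (up to about 40uM final) for 48 hours at 37 degree Celsius. Luciferase luminescence was read after lysis.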
# uPA surface inh: blocks generation of uPA at the cell surface | Potency, µM (top dose mostly 38.3 µM), without a hit: top-dose activity change, negative = inhibition, actives largely listed as inhibitors | actives 0.31% (n = 330,000) | cell surface uPA generation assay, qHTS; active means well fitted inhibition curve with a large enough effect; inconclusive means small, poorly fitted or top-dose-only effect; inactive means no such curve, though single readings can be large or run the other way; tested in mouse RAW 264.7 cells; further: potency means the concentration at half of the fitted maximal effect; on the % scale 0 is the no-effect control and ±100 the full control effect; nearly all actives have a fitted effect of over 55% in size
# TDP1 cell CPT: DT40-hTDP1 cell growth loss with CPT | actives 12% (n = 420,000) | Potency, µM (series often up to 46.2 µM), without a hit: at the top dose activity change, negative = growth inhibition, most hits filed as inhibitors | AID 686979 | chicken DT40 Tdp1-/-;hTDP1 cells + 20 nM CPT, ATP luminescence, 48 h; further: potency means the concentration at half of the fitted maximal effect; on the % scale 0 is the no-effect control and ±100 the full control effect; nearly all actives have a fitted effect of over 55% in size
#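 Cell growth measured by CellTiter-Glo luminescence after a minimum 48 h, 37 C compound exposure with 20 nM CPT in Tdp1-knockout DT40 cells stably expressing hTDP1, seeded 400/well; qHTS titration format.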
# Numbers without * were called inactive; ? = inconclusive; · = not tested or not shown. Unless noted, the call rests on the fitted dose curve; in most records, active means well fitted curve in the direction sought with a large enough effect; inconclusive means small, poorly fitted or top-dose-only effect, or another doubt; inactive means no such curve, though single readings can be large; an effect the other way counts as inactive or inconclusive.
# Sample of the layout:
SMILES,TDP1 inh,DT40 TDP1 no CPT,miR-21 reporter,uPA surface inh,TDP1 cell CPT
O=C(CN1CCOCC1)NNC(=O)c1ccc([N+](=O)[O-])cc1,4%,-5%,-1%,-1%,3%
O=C(CSC1CS(=O)(=O)c2cc([N+](=O)[O-])ccc21)NNC(=O)c1ccc(Cl)cc1 (centres undefined),·,2.3µM*,4%,-8%,5.2µM*
O=C(CSc1nnc2ccccn12)NNC(=O)c1cccc([N+](=O)[O-])c1,1%,6%,·,-9%,9%
O=C(CSC1CS(=O)(=O)c2cc([N+](=O)[O-])ccc21)NNC(=O)c1ccccc1 (centres undefined),·,21µM*,5%,2%,13µM*
CSc1nc(NCCOC(C)=O)c(C#N)c(-c2ccc(C(C)(C)C)cc2)n1,-5%,16µM*,3%,·,?
COCCCNCCCCOc1ccccc1-c1ccccc1,-4%,15µM*,2%,-4%,21µM*

# All compounds of this part, previewed entries included:
SMILES,TDP1 inh,DT40 TDP1 no CPT,miR-21 reporter,uPA surface inh,TDP1 cell CPT
O=C(CN1CCOCC1)NNC(=O)c1ccc([N+](=O)[O-])cc1,4%,-5%,-1%,-1%,3%
O=C(CSC1CS(=O)(=O)c2cc([N+](=O)[O-])ccc21)NNC(=O)c1ccc(Cl)cc1 (centres undefined),·,2.3µM*,4%,-8%,5.2µM*
O=C(CSc1nnc2ccccn12)NNC(=O)c1cccc([N+](=O)[O-])c1,1%,6%,·,-9%,9%
O=C(CSC1CS(=O)(=O)c2cc([N+](=O)[O-])ccc21)NNC(=O)c1ccccc1 (centres undefined),·,21µM*,5%,2%,13µM*
CSc1nc(NCCOC(C)=O)c(C#N)c(-c2ccc(C(C)(C)C)cc2)n1,-5%,16µM*,3%,·,?
COCCCNCCCCOc1ccccc1-c1ccccc1,-4%,15µM*,2%,-4%,21µM*
CNCCCCOc1ccccc1-c1ccccc1,-3%,?,-7%,-1%,26µM*
CC(C)OC(=O)CN1C(=O)S/C(=C/c2ccc(N3CCCCC3)o2)C1=O,7%,20µM*,4%,-5%,16µM*
O=C1S/C(=C/c2ccc(N3CCOCC3)o2)C(=O)N1Cc1ccc(F)cc1,0%,?,-3%,0%,?
Cc1ccc(C(=O)c2c(C)oc3c2C(=O)C(=O)c2ccccc2-3)cc1,10%,2.6µM*,?,-17%,2.1µM*
Cc1ccc(C(=O)c2coc3c2C(=O)C(=O)c2ccccc2-3)cc1,7%,4.6µM*,-27%,-14%,3.3µM*
Cc1ccc(CC(=O)Nc2ccc(S(=O)(=O)Nc3nccc(C)n3)cc2)cc1,·,13%,-8%,3%,-1%
CCOC(=O)c1cc(OC(=O)c2cccnc2)n(-c2ccccc2)n1,-5%,·,0%,·,·
CC[C@H](C)[C@H](NC(N)=O)C(=O)Nc1ccccc1F,0%,-14%,-3%,5%,-1%
CCCn1nnc(NC(=S)NC(=O)c2cccs2)n1,1%,18µM*,-46%,0%,21µM*
CCCSC(=S)c1c(C)[nH]n(-c2ccccc2)c1=O,8%,16µM*,18%,-1%,21µM*
CCOc1ccc(CCNC(=O)COC(=O)CNC(=O)c2ccc(Br)o2)cc1OCC,2%,-11%,·,-8%,?
Cc1nc2ccccn2c1C(=O)NC1CCCCC1,-6%,-18%,-7%,-3%,6%
Cc1cccc(NC(=O)C[n+]2ccc(N(C)C)cc2)c1,6%,?,5%,-1%,15µM*
Cc1cc(C)cc(NC(=O)C[n+]2ccccc2)c1,4%,-22%,1%,1%,-11%
CN(C)c1cc[n+](CC(=O)Nc2ccc(Cl)cc2)cc1,·,3.3µM*,?,-3%,6.5µM*
CCCCC/C=C\C/C=C\C/C=C\CCCCCCC(=O)O[C@H](COCCCCCCCCCCCCCCCC)COP(=O)([O-])OCC[N+](C)(C)C,4%,·,·,·,·
CCOC(=O)c1c(C)[nH]c(C(=O)COC(=O)/C=C/c2ccc(OCC#N)c(OC)c2)c1C,-3%,-11%,2%,11%,-1%
CC1Cc2ccccc2N1S(=O)(=O)c1cccc(C(=O)NCc2ccco2)c1 (centres undefined),0%,-26%,·,-2%,-14%
CNC(=O)C1CN(C(=O)c2cccc(S(=O)(=O)N3c4ccccc4CC3C)c2)c2ccccc2O1 (centres undefined),0%,18µM*,·,8%,?
SMILES,TDP1 inh,DT40 TDP1 no CPT,miR-21 reporter,uPA surface inh,TDP1 cell CPT
COc1ccccc1C(CNC(=O)c1cccc(S(=O)(=O)N2c3ccccc3CC2C)c1)N(C)C (centres undefined),·,15µM*,·,?,?
CC1Cc2ccccc2N1S(=O)(=O)c1cccc(C(=O)Nc2cccnc2)c1 (centres undefined),2%,?,?,2%,?
COc1ccccc1C(CNC(=O)c1cccc(S(=O)(=O)N2CCCc3ccccc32)c1)N(C)C (centres undefined),·,?,·,-8%,?
C=CCN(CC=C)C(=O)c1cccc(S(=O)(=O)N2c3ccccc3CC2C)c1 (centres undefined),4%,16µM*,20%,-20%,16µM*
CC1Cc2ccccc2N1S(=O)(=O)c1cccc(C(=O)NC2CC2)c1 (centres undefined),1%,13µM*,1%,6%,18µM*
C=CC[C@H](CC(=O)OC(C)(C)C)C(=O)OC[C@@H]1CCCN1C(=O)[C@@H](CC=C)CC(=O)NCCO,0%,-16%,·,-2%,?
Cc1cccc(CS(=O)(=O)c2ncc(Cl)c(C(=O)NCc3ccccc3)n2)c1,7%,2.6µM*,?,?,3.3µM*
CCc1nnc(NC(=O)c2ccc(Cl)nc2)s1,0%,4%,-39%,-6%,-27%
CCSc1nnc(NC(=O)c2csc3c2CCC(C)C3)s1 (centres undefined),-1%,?,0%,·,18µM*
Cc1nnc(NC(=O)c2nc(S(=O)(=O)Cc3ccccc3)ncc2Cl)s1,5%,12µM*,?,-2%,9.2µM*
CCc1nnc(NC(=O)c2cc(Cl)ccn2)s1,·,2.6µM*,-11%,-5%,2.9µM*
Cc1ccc(CSc2ncc(Cl)c(C(=O)NCc3ccccc3)n2)cc1,7%,?,-2%,·,-28%
CCOc1ccc(CCNS(=O)(=O)c2ccc3c(c2)NC(=O)CO3)cc1OCC,0%,7%,-5%,8%,-10%
CCOC(=O)c1nc(S(C)(=O)=O)ncc1Cl,4%,3.7µM*,?,?,4.1µM*
CCc1nnc(NC(=O)c2nc(S(C)(=O)=O)ncc2Cl)s1,10%,9.2µM*,-3%,·,5.8µM*
CCSc1nnc(NC(=O)c2ccccn2)s1,11%,3.2µM*,10%,-13%,5µM*
CCSc1nnc(NC(=O)c2cnccn2)s1,3%,-4%,-9%,8%,-3%
Cc1cccc(C)c1NC(=O)c1nc(S(=O)(=O)Cc2ccccc2)ncc1Cl,4%,2.9µM*,?,3%,2.6µM*
O=C1CC(c2ccccc2Cl)CC(O)=C1C=NCCCO (centres undefined),·,-5%,0%,-19%,-3%
CC(=O)Nc1ccc(SCC(=O)N(CCC#N)c2cc(C)cc(C)c2)cc1,2%,-26%,-3%,1%,-14%
Cc1cccc(CS(=O)(=O)c2ncc(Cl)c(C(=O)Nc3c(C)cccc3C)n2)c1,6%,4.1µM*,?,?,3.7µM*
Cc1ccccc1NC(=O)c1nc(S(C)(=O)=O)ncc1Cl,3%,2.3µM*,?,?,2.3µM*

# Screening data from PubChem BioAssay.
